In ChEMBL document CHEMBL1147462, “Exploring QSAR of melatonin receptor ligand benzofuran derivatives using E-state index” (Bioorg Med Chem Lett, 2004) one finds pC1 data, which are given here for 1 molecule.

The target of this assay is T1, Melatonin receptor type 1B (Homo sapiens) (UniProt P49286).
T1 sequence (whole entry): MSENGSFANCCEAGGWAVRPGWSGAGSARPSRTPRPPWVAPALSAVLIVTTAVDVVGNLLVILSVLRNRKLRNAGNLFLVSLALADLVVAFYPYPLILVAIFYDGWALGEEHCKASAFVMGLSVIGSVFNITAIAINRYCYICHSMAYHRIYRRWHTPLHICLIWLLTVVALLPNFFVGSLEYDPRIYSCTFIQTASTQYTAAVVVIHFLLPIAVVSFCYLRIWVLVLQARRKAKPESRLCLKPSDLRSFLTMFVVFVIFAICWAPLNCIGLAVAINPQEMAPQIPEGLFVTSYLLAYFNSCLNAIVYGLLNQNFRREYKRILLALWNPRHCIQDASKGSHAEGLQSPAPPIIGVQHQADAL
The assay can be described thus: Binding affinity against melatonin receptor type 1B.

Take `COc1ccc2oc(Cc3ccccc3)c(CCNC(C)=O)c2c1`: the pC1 was determined as 4.3.
